Data from patent publication US20090117091A1.

What was measured:
[1] = target: CI-MPR on rat L6 myoblasts (rat); test: cell-based or functional assay
[2] = target: biotinylated, His-tagged recombinant wild-type CI-MPR domains 10-13 (1288FS) (Homo sapiens (Human)) (UniProt P11717); test: SPR (Biacore 3000); affinity relative to IGF-II
[3] = target: biotinylated, His-tagged recombinant wild-type CI-MPR domains 10-13 (1288FS) (Homo sapiens (Human)) (UniProt P11717); test: SPR (Biacore 3000); biotinylated CI-MPR Dom10-13 on SA chip, analyte in solution, steady-state affinity fit, I1572T mutant surface as reference

Kuptake (saturation curve for uptake into L6 Myoblasts) [1] | Relative Affinity [2] | Kd [3] | Substance
7 nM | 0.8 |  | GILT-tagged GAA ZC-701 (from UniProt P10253 70-952) (enzyme)
 | 0.6 | 0.043 µM | GILT-tagged GAA ZC-1026 (from UniProt P01344 32-91; P10253 70-952) (enzyme)
354 nM |  |  | wild-type, untagged GAA (ZC-635) (from UniProt P10253 28-952) (enzyme)
